As usually defined, the IC50 is the concentration at which inhibition is half-maximal.

The assay concerns SET-2. The assay can be described thus: Antiproliferative activity against human SET2 cells harboring JAK2 V617F mutant assessed as inhibition of cell viability incubated for 48 hrs by CellTiterGlo assay. Format: functional, cell-based. To be noted: SET-2, 48 h.

On to `C1=N/C2=N/c3ccc(OCCN4CCCC4)c(c3)COC/C=C/COCc3cccc(c3)C(=C1)N2` [PACRITINIB], for which the IC50 was found to be 217 nM.
